Assay results published in US9346803B2 (Vanderbilt University, priority 2011, dated 2016).

Amino acid sequences for entries named in this document (tags omitted). A change or cut given only in a name is not applied to a line headed by its entry.
UniProt P52895: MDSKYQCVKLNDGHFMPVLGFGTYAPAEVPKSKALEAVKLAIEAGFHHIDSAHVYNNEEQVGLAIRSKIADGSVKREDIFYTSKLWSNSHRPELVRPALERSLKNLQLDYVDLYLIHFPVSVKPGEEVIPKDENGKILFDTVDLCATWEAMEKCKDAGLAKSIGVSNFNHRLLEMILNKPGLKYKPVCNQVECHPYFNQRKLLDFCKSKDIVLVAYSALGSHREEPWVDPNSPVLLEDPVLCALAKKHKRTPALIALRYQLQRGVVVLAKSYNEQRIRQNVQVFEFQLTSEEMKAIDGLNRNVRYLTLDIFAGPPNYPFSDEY
UniProt P17516: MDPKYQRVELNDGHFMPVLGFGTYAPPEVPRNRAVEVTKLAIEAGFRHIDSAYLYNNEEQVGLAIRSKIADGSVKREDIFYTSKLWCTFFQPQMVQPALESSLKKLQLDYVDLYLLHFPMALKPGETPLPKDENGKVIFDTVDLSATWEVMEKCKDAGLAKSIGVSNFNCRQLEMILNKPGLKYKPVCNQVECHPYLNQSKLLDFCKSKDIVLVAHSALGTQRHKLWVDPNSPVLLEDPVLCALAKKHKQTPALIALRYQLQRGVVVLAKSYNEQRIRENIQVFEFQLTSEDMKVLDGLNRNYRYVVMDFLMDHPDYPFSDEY
UniProt Q04828: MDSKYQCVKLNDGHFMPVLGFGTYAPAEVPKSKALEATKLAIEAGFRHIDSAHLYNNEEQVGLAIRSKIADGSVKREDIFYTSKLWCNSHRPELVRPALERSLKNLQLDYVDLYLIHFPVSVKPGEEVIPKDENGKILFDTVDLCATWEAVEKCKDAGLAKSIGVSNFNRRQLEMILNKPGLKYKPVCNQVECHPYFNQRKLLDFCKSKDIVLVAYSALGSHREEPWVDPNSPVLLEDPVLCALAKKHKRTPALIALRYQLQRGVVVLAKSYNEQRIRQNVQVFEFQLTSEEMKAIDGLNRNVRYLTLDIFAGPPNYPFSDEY
UniProt P42330: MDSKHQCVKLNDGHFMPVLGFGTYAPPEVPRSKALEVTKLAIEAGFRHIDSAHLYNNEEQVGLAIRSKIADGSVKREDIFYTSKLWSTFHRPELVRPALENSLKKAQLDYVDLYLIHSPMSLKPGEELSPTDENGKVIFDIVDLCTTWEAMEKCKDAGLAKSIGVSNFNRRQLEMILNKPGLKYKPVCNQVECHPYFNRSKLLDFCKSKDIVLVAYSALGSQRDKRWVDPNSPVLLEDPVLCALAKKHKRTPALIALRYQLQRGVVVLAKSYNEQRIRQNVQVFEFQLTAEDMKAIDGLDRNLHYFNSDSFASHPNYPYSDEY

How the values were obtained:
Type in all cases: biochemical
AKR1C2 = AKR1C2 (Homo sapiens (Human), UniProt P52895); test: Inhibition of S-tetralol oxidation, AKR1C2; settings: for fold selectivity for AKR1C3 over AKR1C2: number in parenthesis, ratio of IC50 values; for IC50: S-tetralol substrate at Km
AKR1C4 = AKR1C4 (Homo sapiens (Human), UniProt P17516); test: Inhibition of S-tetralol oxidation, AKR1C4; settings: for fold selectivity for AKR1C3 over AKR1C4: number in parenthesis
AKR1C1 = AKR1C1 (Homo sapiens (Human), UniProt Q04828); test: Inhibition of S-tetralol oxidation, AKR1C1; settings: for fold selectivity for AKR1C3 over AKR1C1: number in parenthesis
Source text: Inhibitors were initially screened for an ability to block the NADP+ dependent oxidation of the artificial substrate S-tetralol catalyzed by AKR1C3. S-tetralol was used since it is also a substrate of the highly related AKR1C1 and AKR1C2 enzymes.
Initially, the ratios of IC50 values for AKR1C2 versus AKR1C3 were compared. High ratios were indicative of high selectivity for AKR1C3.
The latter assay is used to determine whether lead compounds act as AR agonists or block 5α-DHT reporter gene activity by acting as androgen receptor antagonists.

[1] = biological target: homogeneous recombinant AKR1C3 (Homo sapiens (Human), UniProt P42330); test: Inhibition of NADP+ dependent oxidation of S-tetralol catalyzed by AKR1C3; settings: S-tetralol substrate at Km

SMILES | fold selectivity for AKR1C3 over AKR1C2 (AKR1C2) | IC50 (AKR1C4; S-tetralol substrate at Km) | fold selectivity for AKR1C3 over AKR1C4 (AKR1C4) | fold selectivity for AKR1C3 over AKR1C1 (AKR1C1) | IC50 [1] | IC50 (AKR1C2) | IC50 (AKR1C1; S-tetralol substrate at Km)
COc1ccc2c(c1)c(C)c(CCC(=O)O)n2C(=O)c1ccc(Cl)cc1 [Compound 2] | 111 fold | – | – | – | – | – | –
COc1ccc2c(c1)c(C)c(CCC(=O)O)n2C(=O)c1ccc(Cl)cc1 [drawing 37] | – | 3.51 µM | 27 fold | 136 fold | 0.13 µM | – | –
COc1ccc2c(c1)c(CCC(=O)O)c(C)n2C(=O)c1ccc(Cl)cc1 | – | – | – | – | – | 57 µM | –
COc1ccc2c(c1)c(CC(=O)O)c(C)n2C(=O)c1ccc(C(F)(F)F)cc1 | 134 fold | – | > 370 fold | > 370 fold | 0.27 µM | – | –
COc1ccc2c(c1)c(CC(=O)O)c(C)n2C(=O)c1ccc(C)cc1 | 336 fold | – | > 625 fold | > 625 fold | – | 54.5 µM | –
COc1ccc2c(c1)c(CC(=O)NS(=O)(=O)C(F)(F)F)cn2C(=O)c1ccc(Cl)cc1 [drawing 36] | – | – | – | – | 0.21 µM | 50.1 µM | –
COc1ccc2c(c1)c1c(n2C(=O)c2ccc(Cl)cc2)CCC(C(=O)O)C1 (stereo not drawn) | 331 fold | – | 20 fold | 477 fold | 0.16 µM | 53.5 µM | 76.2 µM
COc1ccc2c(c1)c(CC(=O)O)cn2C(=O)c1ccc(Cl)cc1 | – | – | – | – | 0.96 µM | 100 µM | –
